target: Sphingosine kinase 1 (Homo sapiens, UniProt Q9NYA1)

Amino acid sequences for entries named in this document (tags omitted).
UniProt Q9NYA1, whole entry: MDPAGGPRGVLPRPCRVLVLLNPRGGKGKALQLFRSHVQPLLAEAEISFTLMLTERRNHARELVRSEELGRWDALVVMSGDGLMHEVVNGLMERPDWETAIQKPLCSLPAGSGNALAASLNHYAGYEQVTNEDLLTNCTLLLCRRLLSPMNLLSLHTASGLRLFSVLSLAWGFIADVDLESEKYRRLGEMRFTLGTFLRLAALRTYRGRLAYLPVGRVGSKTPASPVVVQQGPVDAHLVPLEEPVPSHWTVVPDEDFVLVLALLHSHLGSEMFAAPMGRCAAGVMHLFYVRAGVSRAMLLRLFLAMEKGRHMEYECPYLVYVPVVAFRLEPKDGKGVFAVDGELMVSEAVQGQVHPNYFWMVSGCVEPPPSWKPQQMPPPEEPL

Row | Compound | IC50
1 | OC[C@H]1C[C@H](O)CCN1CCc1ccc(Nc2nc(-c3ccc4ccccc4c3)cs2)cc1 | 0.22 µM
2 | OC[C@H]1C[C@@H](O)CCN1CCc1ccc(Nc2nc(-c3ccc4ccccc4c3)cs2)cc1 | 0.02 µM
3 | OC[C@@H]1C[C@H](O)CCN1CCc1ccc(Nc2nc(-c3ccc4ccccc4c3)cs2)cc1 | 0.45 µM
